Consider four molecules from patent US8404708B2, “Dual NK1/NK3 receptor antagonists” (Hoffmann-La Roche Inc., priority 2004, dated 2013).

Protein sequences, listed by entry. Tags and fused reporters are not part of them.
UniProt P25103, whole entry: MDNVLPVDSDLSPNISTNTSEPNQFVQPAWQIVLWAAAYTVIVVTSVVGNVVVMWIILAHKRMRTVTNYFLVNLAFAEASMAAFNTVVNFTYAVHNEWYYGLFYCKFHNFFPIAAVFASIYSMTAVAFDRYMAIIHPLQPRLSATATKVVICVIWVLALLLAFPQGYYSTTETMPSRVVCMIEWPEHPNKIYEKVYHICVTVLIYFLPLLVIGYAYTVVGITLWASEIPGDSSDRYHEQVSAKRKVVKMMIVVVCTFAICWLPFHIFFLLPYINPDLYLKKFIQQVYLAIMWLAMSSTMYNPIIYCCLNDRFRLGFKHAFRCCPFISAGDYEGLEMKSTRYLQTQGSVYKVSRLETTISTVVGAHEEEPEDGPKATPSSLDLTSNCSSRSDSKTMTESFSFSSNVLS
UniProt P29371, whole entry: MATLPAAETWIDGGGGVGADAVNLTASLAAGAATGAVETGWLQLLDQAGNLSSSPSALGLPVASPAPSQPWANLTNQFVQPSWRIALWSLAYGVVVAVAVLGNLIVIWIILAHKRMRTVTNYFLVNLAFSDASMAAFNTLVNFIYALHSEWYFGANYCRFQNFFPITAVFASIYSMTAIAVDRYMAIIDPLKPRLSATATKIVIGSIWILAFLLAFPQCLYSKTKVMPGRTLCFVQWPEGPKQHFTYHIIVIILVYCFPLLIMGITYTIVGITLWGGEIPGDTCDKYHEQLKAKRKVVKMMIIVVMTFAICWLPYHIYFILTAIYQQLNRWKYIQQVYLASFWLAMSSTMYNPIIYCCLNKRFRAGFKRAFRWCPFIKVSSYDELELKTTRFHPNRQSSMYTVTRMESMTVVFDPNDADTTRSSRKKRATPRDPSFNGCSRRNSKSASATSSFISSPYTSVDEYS

Structures are written as SMILES.

The target in test [1] is human NK1 receptor (Homo sapiens, UniProt P25103). Put plainly: NK1 receptor binding, [3H]substance P displacement, CHO cell membranes.
For test [2], the target named is T1, Recombinant human NK3 (hNK3) receptor (Homo sapiens, UniProt P29371).
T1 construct: expressed in transfected cells
Kind of test: NK3 receptor binding, [3H]SR142801 displacement, membrane preparations. The note with it: second value of the cell pKi NK1/NK3. Here is the method: Non specific binding was determined using 10 μM SB222200. Assay buffer consisted of Tris-HCl (50 mM, pH 7.4), BSA (0.1%), MnCl2 (4 mM) and phosphoramidon (1 μM). Membrane preparations of hNK3 receptors (approximately 2.5 μg/well in a 96 well plate) were used to initiate the incubation for 90 min at room temperature. This assay was terminated by rapid filtration under vacuum through GF/C filters, presoaked for 90 min with PEI (0.3%), with 3×0.5 ml washes of ice-cold Tris buffer (50 mM, pH 7.4) containing 0.1% BSA. The radioactivity retained on the filters was measured by scintillation counting. All assays were performed in duplicate in at least two separate experiments.

What is called Ki is a dissociation constant, usually derived from enzyme kinetics or from competition with a known ligand. Higher therefore signals a looser hold on the target. With `CN(C(=O)C(C)(C)c1cc(C(F)(F)F)cc(C(F)(F)F)c1)c1cnc(N2C[C@@H](O)C[C@@H]2CO)cc1-c1ccccc1Cl` [Example 139, (2R,4S)-2-(3,5-Bis-trifluoromethyl-phenyl)-N-[4-(2-chloro-phenyl)-6-(4-hydroxy-2-hydroxymethyl-pyrrolidin-1-yl)-pyridin-3-yl]-N-methyl-isobutyramide], the Ki in test [1] is 676 pM.

`CN(C(=O)C(C)(C)c1cc(C(F)(F)F)cc(C(F)(F)F)c1)c1cnc(N2C[C@H](O)C[C@H]2CO)cc1-c1ccccc1Cl` [Example 97, (2S,4R)-2-(3,5-Bis-trifluoromethyl-phenyl)-N-[4-(2-chloro-phenyl)-6-(4-hydroxy-2-hydroxymethyl-pyrrolidin-1-yl)-pyridin-3-yl]-N-methyl-isobutyramide] gave a Ki in test [1] of 741 pM. In test [1], `CN(C(=O)C(C)(C)c1cc(C(F)(F)F)cc(C(F)(F)F)c1)c1cnc(N2C[C@@H](O)C[C@H]2CO)cc1-c1ccccc1Cl` [Example 140, (2S,4S)-2-(3,5-Bis-trifluoromethyl-phenyl)-N-[4-(2-chloro-phenyl)-6-(4-hydroxy-2-hydroxymethyl-pyrrolidin-1-yl)-pyridin-3-yl]-N-methyl-isobutyramide] showed a Ki of 776 pM. Further, the “pKi NK3” value in test [2] was 9.11/8.83. In the case of `CN(C(=O)C(C)(C)c1cc(C(F)(F)F)cc(C(F)(F)F)c1)c1cnc(N2C[C@H](O)C[C@@H]2CO)cc1-c1ccccc1Cl` [Example 96, (2R,4R)-2-(3,5-Bis-trifluoromethyl-phenyl)-N-[4-(2-chloro-phenyl)-6-(4-hydroxy-2-hydroxymethyl-pyrrolidin-1-yl)-pyridin-3-yl]-N-methyl-isobutyramide], the affinity in test [1] corresponds to a Ki of 6920 pM.
